Earlier results as cited in paper PMC8583936, “Machine Learning Assisted Approach for Finding Novel High Activity Agonists of Human Ectopic Olfactory Receptors” (International Journal of Molecular Sciences, 2021).
This is a selection: effects in other tests are not listed, and their absence says nothing.

Protein sequences, listed by entry. Tags and fused reporters are not part of them.
UniProt Q9P1Q5, whole entry: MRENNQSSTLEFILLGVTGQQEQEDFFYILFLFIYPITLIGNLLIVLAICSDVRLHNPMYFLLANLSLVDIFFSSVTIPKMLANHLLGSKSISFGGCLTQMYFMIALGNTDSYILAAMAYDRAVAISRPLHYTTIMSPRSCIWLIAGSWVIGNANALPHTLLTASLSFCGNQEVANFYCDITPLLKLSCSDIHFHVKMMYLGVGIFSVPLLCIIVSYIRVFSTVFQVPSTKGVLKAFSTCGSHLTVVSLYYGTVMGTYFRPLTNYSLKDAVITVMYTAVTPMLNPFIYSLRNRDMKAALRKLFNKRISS
UniProt Q9Y3N9, whole entry: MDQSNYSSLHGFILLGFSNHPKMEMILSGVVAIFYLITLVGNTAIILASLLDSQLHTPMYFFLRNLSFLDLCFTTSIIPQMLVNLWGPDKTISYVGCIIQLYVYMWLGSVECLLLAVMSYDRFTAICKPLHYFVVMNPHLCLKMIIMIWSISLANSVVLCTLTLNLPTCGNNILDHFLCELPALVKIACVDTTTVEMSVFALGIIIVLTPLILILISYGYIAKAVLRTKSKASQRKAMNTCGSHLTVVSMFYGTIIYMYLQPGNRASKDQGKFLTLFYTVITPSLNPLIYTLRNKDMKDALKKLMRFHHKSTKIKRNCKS

What was measured:
OR1A1 = OR1A1 (Homo sapiens, UniProt Q9P1Q5); settings: Table S1; ref Supplement references [1]-[9]; cited from earlier work
OR2W1 = OR2W1 (Homo sapiens, UniProt Q9Y3N9); settings: Table S2; ref Supplement references [2]-[12]; cited from earlier work

Cc1ccc([N+](=O)[O-])cc1[N+](=O)[O-]
Class (agonist / non-agonist / conflicting info.) for OR1A1 (OR1A1): Conflicting info.
Class (agonist / non-agonist / antagonist / conflicting info.) for OR2W1 (OR2W1): Non-agonist
